This is an account of results in patent US10112926B2 (priority 2014, dated 2018).

The chains behind the UniProt entries cited, without tags or fusion partners. Where a name states a change or a piece, a line headed by the entry shows the natural chain unless it says otherwise.
UniProt P42336, whole entry, looked up: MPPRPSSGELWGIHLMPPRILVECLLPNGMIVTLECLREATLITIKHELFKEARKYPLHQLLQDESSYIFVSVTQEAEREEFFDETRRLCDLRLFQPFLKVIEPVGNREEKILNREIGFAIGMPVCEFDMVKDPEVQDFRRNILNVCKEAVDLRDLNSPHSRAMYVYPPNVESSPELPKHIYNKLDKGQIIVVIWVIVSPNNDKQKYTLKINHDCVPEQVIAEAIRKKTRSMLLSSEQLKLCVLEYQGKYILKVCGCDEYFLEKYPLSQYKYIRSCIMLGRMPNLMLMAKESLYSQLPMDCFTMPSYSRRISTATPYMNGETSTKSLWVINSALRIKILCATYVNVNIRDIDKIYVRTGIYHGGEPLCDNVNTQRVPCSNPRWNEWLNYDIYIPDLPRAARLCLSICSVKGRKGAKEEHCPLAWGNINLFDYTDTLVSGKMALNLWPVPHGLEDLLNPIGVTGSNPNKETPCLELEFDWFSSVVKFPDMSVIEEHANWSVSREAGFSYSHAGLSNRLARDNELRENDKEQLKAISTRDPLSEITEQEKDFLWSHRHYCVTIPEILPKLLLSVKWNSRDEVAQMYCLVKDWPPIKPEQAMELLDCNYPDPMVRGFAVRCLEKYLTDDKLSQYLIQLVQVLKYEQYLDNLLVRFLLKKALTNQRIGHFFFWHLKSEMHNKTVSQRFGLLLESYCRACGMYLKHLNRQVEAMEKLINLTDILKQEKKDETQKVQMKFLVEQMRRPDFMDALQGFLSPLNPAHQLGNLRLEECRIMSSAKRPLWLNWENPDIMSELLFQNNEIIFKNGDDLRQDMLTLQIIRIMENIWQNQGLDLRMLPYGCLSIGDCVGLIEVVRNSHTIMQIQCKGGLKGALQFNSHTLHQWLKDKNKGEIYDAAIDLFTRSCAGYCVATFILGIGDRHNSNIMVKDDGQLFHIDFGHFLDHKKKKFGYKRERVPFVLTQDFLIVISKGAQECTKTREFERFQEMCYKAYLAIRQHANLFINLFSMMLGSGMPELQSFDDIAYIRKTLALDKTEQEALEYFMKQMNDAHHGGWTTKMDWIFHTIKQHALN
UniProt Q8NEB9, whole entry: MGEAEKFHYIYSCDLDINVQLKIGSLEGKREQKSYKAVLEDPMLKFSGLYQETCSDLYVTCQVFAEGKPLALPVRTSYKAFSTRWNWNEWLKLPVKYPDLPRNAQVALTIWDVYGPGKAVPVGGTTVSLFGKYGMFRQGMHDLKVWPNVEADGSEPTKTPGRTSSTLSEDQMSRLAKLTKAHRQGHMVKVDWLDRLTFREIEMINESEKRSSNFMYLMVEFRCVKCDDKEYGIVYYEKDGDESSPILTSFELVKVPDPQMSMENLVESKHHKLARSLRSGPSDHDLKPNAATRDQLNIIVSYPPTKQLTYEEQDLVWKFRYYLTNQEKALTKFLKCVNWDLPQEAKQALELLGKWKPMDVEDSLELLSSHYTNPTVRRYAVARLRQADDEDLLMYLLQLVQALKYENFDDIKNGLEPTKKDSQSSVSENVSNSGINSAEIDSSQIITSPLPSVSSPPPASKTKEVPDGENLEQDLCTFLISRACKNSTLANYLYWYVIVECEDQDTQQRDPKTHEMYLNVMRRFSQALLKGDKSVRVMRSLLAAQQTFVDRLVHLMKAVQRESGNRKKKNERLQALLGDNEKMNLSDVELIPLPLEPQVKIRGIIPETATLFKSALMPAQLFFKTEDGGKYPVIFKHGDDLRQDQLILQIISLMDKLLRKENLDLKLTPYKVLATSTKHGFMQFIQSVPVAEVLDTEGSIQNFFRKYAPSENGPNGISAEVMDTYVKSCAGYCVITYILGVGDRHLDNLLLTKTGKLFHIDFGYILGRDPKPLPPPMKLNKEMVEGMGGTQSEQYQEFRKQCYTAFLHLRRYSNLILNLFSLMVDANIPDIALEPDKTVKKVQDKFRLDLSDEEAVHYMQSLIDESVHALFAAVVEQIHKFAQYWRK
UniProt P42338: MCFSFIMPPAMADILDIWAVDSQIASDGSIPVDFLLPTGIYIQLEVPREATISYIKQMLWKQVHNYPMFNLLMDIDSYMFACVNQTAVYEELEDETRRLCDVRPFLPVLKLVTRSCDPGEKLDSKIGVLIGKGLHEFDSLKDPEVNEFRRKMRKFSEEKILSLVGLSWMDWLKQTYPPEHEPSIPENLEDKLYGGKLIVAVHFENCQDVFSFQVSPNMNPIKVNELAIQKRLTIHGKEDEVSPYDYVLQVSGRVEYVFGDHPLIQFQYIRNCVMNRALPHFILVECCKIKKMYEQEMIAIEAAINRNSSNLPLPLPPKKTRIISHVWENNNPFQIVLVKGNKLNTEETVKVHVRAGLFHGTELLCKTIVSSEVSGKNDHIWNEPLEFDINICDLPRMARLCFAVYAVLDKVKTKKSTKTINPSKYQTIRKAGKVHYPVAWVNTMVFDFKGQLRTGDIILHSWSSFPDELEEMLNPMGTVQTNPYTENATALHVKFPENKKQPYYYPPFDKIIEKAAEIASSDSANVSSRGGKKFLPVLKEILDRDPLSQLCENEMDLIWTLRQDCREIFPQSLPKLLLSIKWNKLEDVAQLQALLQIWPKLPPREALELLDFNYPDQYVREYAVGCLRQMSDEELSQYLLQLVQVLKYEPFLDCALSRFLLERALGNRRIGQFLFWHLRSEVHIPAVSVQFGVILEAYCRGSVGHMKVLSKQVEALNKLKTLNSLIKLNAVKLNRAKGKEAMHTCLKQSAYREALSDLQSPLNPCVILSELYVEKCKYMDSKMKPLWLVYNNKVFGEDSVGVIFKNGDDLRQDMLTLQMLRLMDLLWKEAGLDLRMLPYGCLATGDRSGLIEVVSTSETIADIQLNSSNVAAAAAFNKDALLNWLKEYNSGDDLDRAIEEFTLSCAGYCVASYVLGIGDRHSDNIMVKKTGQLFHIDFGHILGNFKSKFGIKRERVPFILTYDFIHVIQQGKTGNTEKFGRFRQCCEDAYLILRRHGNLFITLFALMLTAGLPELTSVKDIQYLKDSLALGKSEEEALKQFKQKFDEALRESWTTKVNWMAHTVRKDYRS
UniProt Q9UBF8: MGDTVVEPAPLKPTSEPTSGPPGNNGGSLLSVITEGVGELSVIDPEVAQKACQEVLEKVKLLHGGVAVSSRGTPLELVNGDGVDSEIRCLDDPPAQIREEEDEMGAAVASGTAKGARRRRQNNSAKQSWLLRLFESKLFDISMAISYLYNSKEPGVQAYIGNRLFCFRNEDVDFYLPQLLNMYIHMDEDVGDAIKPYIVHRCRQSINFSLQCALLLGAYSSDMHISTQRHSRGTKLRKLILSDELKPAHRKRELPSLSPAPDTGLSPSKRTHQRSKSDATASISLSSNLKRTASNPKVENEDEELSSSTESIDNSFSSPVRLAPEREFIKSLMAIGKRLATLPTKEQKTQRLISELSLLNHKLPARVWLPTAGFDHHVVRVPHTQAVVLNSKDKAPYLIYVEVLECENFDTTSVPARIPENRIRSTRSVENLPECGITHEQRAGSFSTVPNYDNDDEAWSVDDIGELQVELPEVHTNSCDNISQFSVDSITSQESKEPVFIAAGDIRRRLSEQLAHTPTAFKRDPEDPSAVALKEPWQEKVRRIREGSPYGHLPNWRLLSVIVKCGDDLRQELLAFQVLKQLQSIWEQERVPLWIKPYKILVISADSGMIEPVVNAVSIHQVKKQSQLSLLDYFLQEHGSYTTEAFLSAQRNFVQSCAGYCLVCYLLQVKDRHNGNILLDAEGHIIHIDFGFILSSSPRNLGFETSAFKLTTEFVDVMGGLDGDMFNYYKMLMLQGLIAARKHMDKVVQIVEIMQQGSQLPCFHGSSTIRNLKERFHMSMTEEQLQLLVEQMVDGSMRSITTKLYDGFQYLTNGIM
UniProt O00329: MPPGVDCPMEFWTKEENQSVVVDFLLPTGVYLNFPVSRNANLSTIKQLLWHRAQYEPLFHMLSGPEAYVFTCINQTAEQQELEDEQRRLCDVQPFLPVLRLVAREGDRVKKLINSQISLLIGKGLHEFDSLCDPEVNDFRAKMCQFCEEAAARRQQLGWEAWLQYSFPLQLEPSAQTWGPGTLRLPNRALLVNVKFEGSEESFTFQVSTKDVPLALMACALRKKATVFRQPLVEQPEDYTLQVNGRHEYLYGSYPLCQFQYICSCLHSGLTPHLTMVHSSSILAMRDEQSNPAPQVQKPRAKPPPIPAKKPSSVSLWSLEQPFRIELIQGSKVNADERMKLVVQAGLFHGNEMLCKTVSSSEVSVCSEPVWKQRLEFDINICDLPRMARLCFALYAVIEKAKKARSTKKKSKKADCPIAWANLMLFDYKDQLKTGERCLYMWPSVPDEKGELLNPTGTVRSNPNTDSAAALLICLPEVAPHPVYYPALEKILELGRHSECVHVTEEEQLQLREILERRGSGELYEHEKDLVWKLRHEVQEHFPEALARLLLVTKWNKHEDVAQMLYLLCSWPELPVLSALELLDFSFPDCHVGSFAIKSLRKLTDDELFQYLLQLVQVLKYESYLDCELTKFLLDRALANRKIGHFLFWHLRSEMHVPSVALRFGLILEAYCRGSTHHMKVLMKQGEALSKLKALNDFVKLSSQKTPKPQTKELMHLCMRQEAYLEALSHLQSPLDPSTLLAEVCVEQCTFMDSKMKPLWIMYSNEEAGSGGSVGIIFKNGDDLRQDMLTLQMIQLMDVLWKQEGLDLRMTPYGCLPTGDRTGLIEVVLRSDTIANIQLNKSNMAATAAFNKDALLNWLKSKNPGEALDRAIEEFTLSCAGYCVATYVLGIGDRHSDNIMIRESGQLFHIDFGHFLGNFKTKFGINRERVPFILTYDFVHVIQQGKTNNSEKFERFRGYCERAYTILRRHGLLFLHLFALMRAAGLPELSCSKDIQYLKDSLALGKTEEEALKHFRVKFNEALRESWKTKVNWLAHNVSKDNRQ
UniProt P48736: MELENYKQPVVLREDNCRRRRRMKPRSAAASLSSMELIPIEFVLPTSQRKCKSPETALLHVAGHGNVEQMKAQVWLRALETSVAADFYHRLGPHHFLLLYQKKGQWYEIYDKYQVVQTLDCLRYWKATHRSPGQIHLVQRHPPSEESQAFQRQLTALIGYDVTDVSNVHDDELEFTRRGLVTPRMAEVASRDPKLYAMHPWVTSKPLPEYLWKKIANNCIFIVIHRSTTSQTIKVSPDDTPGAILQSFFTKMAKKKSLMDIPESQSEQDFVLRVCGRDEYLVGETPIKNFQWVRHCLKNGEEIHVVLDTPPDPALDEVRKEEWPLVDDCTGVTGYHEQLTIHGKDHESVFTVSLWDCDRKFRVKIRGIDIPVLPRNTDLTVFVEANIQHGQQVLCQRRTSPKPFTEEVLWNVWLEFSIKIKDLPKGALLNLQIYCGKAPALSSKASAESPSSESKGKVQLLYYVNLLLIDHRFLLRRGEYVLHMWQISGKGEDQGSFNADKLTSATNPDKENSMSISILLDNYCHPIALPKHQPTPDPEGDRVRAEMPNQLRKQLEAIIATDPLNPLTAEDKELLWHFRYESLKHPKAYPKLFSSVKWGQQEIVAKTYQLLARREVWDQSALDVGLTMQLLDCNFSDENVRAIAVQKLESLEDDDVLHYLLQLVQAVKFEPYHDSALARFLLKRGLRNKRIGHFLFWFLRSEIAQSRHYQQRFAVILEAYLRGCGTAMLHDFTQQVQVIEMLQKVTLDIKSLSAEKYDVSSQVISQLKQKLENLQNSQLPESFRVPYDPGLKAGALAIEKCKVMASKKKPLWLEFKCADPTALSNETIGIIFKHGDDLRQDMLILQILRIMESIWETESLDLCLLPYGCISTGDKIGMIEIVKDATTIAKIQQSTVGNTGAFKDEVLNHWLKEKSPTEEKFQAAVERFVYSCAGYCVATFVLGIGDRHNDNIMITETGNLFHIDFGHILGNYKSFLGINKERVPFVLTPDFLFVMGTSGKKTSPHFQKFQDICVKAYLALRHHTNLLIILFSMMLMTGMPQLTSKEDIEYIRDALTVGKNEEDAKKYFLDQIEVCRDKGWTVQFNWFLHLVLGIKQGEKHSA

Structures can show the parent of a compound that is named as a salt. Where two headings read alike, the source gives them in different places.

Data set [1] deals with T1, PI 3-kinase alpha (Homo sapiens (Human), UniProt P42336).
Data set [2] deals with T2, Vps34 (Homo sapiens (Human), UniProt Q8NEB9). The following applies: read-out: Assay C VPS34 IC50.
In data set [3] the target is T3, PI 3-kinase beta (Rat-1 pBABEpuro Myr-HA-hp110 beta cells) (Homo sapiens (Human), UniProt P42338). The following applies: read-out: Assay I PI3Kβ IC50.
In data set [4] the target is PI 3-kinase alpha (Rat-1 pBABEpuro Myr-HA-hp110 alpha cells) (Homo sapiens (Human), UniProt P42336). Description: cell-based.
Data set [5] deals with T4, PI 3-kinase beta (Homo sapiens (Human), UniProt P42338). Description: biochemical. The settings on record: Assay B PI3Kβ IC50 (μM).
Another data set deals with PI 4-kinase beta (Homo sapiens (Human), UniProt Q9UBF8). In words: biochemical.
The conditions of data set [6]: rat, microsomes, pH 7.4.
The target in data set [7] is T3, PI 3-kinase beta (Rat-1 pBABEpuro Myr-HA-hp110 beta cells). In words: cell-based.
Data set [8] has as its target T1, PI 3-kinase alpha. Description: biochemical. The following applies: Assay A PI3Kα IC50 (μM).
The target of another data set is mTOR (Homo sapiens (Human), UniProt P42345). Description: biochemical. The settings on record: Assay G mTOR IC50 (μM).
A further data set addresses PI 3-kinase delta (Homo sapiens (Human), UniProt O00329).
The target in data set [9] is T5, PI 3-kinase gamma (U937 cells, MIP1α-stimulated AKT phosphorylation) (Homo sapiens (Human), UniProt P48736). In words: cell-based.
Data set [10] deals with T4, PI 3-kinase beta. The settings on record: read-out: Assay B PI3Kβ.
In a further data set the target is PI 3-kinase gamma (Homo sapiens (Human), UniProt P48736). The following applies: read-out: Assay E PI3Kγ.
The target of data set [11] is T5, PI 3-kinase gamma (U937 cells, MIP1α-stimulated AKT phosphorylation). The following applies: read-out: Assay K1 PI3Kγ.
The target is the same in data set [12]. The following applies: read-out: Assay K2 PI3Kγ.
The target in data set [13] is T2, Vps34. Description: biochemical.
Data set [14] addresses T3, PI 3-kinase beta (Rat-1 pBABEpuro Myr-HA-hp110 beta cells). Description: cell-based. This is another data set of the same source.
In data set [15] the target is PI 3-kinase delta (Rat-1 pBABEpuro Myr-HA-hp110 delta cells) (Homo sapiens (Human), UniProt O00329). In words: cell-based.

Consider `Cc1cc(-c2cc(-c3cc(S(=O)(=O)NCC4CCCOC4)ccc3C)cnc2N)on1` (single isomer, unassigned) [Example 23b, (R or S)-3-(6-amino-5-(3-methylisoxazol-5-yl)pyridin-3-yl)-4-methyl-N-((tetrahydro-2H-pyran-3-yl)methyl)benzenesulfonamide], for which the IC50 on PI 3-kinase alpha [1] (read-out: Assay A PI3Kα IC50) was 0.26 µM; at Vps34 [2], greater than 10 µM; in data set [3], greater than 3 µM; in data set [4] (Assay H PI3Kα IC50), 3.17 µM; on PI 3-kinase beta [5], 1.2 µM; at PI 4-kinase beta (Assay D PI4Kβ IC50 (μM)), 3 µM.

Take `Cc1noc(-c2cc(-c3cc(S(=O)(=O)N[C@H]4CC5(C[C@@H](O)C5)C4)ccc3C)cnc2N)n1` (single isomer, unassigned) [Example 8.2, (R) or (S)-3-[6-Amino-5-(3-methyl-[1,2,4]oxadiazol-5-yl)-pyridin-3-yl]-N-(6-hydroxy-spiro[3.3]hept-2-yl)-4-methyl-benzenesulfonamide hydrochloride]: the IC50 was greater than 10 µM on Vps34 [2]; 0.54 µM in data set [4] (Assay H PI3Kα IC50); 1.43 µM in [7] (Assay I PI3Kβ IC50); 0.04 µM against PI 3-kinase alpha [8]; 2.1 µM against PI 3-kinase beta [5]; 8.2 µM on mTOR. The “Assay M RLM CI(int)” value in data set [6] amounted to 132 µL/min/mg.

For `Cc1cc(-c2cc(-c3cc(S(=O)(=O)NC[C@@H]4CCCO4)ccc3C)cnc2N)on1` [Example 40, (S)-3-(6-Amino-5-(3-methylisoxazol-5-yl)pyridin-3-yl)-4-methyl-N-((tetrahydrofuran-2-yl)methyl)benzenesulfonamide], the IC50 on PI 3-kinase delta (read-out: Assay F PI3Kδ IC50) amounted to 0.38 µM; in data set [9], 0.457 µM.

On to `COCCNS(=O)(=O)c1cccc(-c2cnc(N)c(C(=O)c3cccnc3)n2)c1` [(iv), reference compound], for which the IC50 came out at 0.49 µM at PI 3-kinase alpha [1] (read-out: Assay A PI3Kα); 1.27 µM at PI 3-kinase beta [10]; 0.06 µM at PI 3-kinase gamma; 1.5 µM on PI 3-kinase delta (read-out: Assay F PI3Kδ); 0.128 µM in data set [11]; 0.264 µM in data set [12]. Moreover, the IC50 worked out at 0.93 µM in data set [4] (Assay H PI3Kα), 3.96 µM in data set [7] (Assay I PI3Kβ), 1.76 µM against Vps34 [13] and 3.76 µM against PI 4-kinase beta (Assay D PI4Kβ).

With `Cc1noc(-c2cc(-c3cc(S(=O)(=O)N[C@H]4CC5(C[C@@H](O)C5)C4)ccc3C)cnc2N)n1` (single isomer, unassigned) [Example 8.1, (R) or (S)-3-[6-Amino-5-(3-methyl-[1,2,4]oxadiazol-5-yl)-pyridin-3-yl]-N-(6-hydroxy-spiro[3.3]hept-2-yl)-4-methyl-benzenesulfonamide hydrochloride], the “Assay M RLM CI(int)” value in [6] worked out at 153 µL/min/mg. In addition, the IC50 is 0.31 µM in [4] (Assay H PI3Kα IC50); 0.98 µM in data set [7] (Assay I PI3Kβ IC50); 0.02 µM against PI 3-kinase alpha [8]; 0.36 µM at PI 3-kinase beta [5]; greater than 10 µM on Vps34 [13]; 0.98 µM at mTOR.

`Cc1ccc(S(=O)(=O)N2CCOCC2)cc1-c1cnc(N)c(C(=O)c2cccnc2)c1` [(i), reference compound]: the IC50 was 0.25 µM at PI 3-kinase alpha [1] (read-out: Assay A PI3Kα); 1.24 µM on PI 3-kinase beta [10]; 0.064 µM on PI 3-kinase gamma; 0.63 µM on PI 3-kinase delta (read-out: Assay F PI3Kδ); 0.526 µM in data set [11]; 0.838 µM in data set [12]. For the same compound, the IC50 in [4] (Assay H PI3Kα) turned out to be 0.97 µM; in data set [7] (Assay I PI3Kβ) it was 3.77 µM; against PI 4-kinase beta (Assay D PI4Kβ), 3.16 µM.

Regarding `Cc1nc(N)ncc1-c1ccc(Cl)c(S(=O)(=O)NCCO)c1` [(xii), reference compound], the IC50 turned out to be 3.32 µM at PI 3-kinase alpha [1] (read-out: Assay A PI3Kα); 1.19 µM at PI 3-kinase beta [10]; 0.753 µM at PI 3-kinase gamma; 6.01 µM at PI 3-kinase delta (read-out: Assay F PI3Kδ); 4.37 µM in data set [14]; 5.55 µM in data set [15].
